# In US20050049309A1, “Regulation of HIF protein levels via deubiquitination pathway” (priority 2003, published 2005):
# Experiments:
# [1] = tested on: VEGF protein; assay: VEGF ELISA in cell lysates and medium
# [2] = tested on: HT-29 cells; assay: Levels of HSP-90, HSP-90 client proteins and other ubiquitination-controlled proteins by Western blotting
# [3] = tested on: HIF-1α; assay: Ubiquitination of HIF-1α in cells (immunoprecipitation and Western blotting); assay type: cell-based, human
# [4] = tested on: HIF-1 transactivation; assay: Hypoxia Response Element (HRE) luciferase reporter assay
# [5] = tested on: HIF-1α protein; assay: HIF-1α protein levels in cancer cells by Western blotting of nuclear extracts
# [6] = tested on: HT-29 xenografts; conditions: 100 mg/kg; Welsh et al., Eur. J. Cancer 2002; cited from earlier work
# [7] = tested on: HIF-1α; assay: HIF-1α degradation (cycloheximide block, pulse-chase analysis); conditions: HT-29 cells, hypoxia, cycloheximide treated, PX-478 25 M
# [8] = tested on: HT-29 colon tumor xenografts; assay: HT-29 colon tumor xenografts in scid mice, tumor protein levels by Western blotting; conditions: HT-29 xenografts in scid mice, 100 mg/kg, 2 hr
# [9] = tested on: HIF-1α; assay: Subcellular localization of HIF-1α (nuclear/cytoplasmic fractions, immunofluorescence); conditions: HT-29 cells
# [10] = tested on: hypoxic cells; conditions: in the presence of a reducing enzyme; U.S. Pat. No. 5,602,278; cited from earlier work
# [11] = tested on: PC-3 xenografts; assay: PC-3 xenografts, tumor HIF-1α level and ubiquitination; conditions: data not shown
# [12] = tested on: HIF-1β protein; assay: HIF-1β protein level in cells; conditions: normoxic or hypoxic conditions
# [13] = tested on: HIF-1α mRNA; assay: HIF-1α mRNA level in cells; conditions: normoxic or hypoxic conditions
compound,measurement,setting,value
N[C@@H](Cc1ccc([N+]([O-])(CCCl)CCCl)cc1)C(=O)O,Hypoxia induced expression of VEGF protein,"[1]; MCF-7 and HT-29 cells, 16 hours, hypoxic conditions, p=<0.01, dose-dependent",significantly decreased
same,VEGF protein production,[1]; normoxic conditions,not inhibited
same,"Levels of HSP-90 and HSP-90 client proteins AKT, c-Src and Raf-1",[2],does not affect
same,"Levels of cyclin B1, histone H1 or mutant p53",[2],no effect
same,Ubiquitination of HIF-1α with proteasome inhibited,"[3]; HT-29 cells, hypoxia, 10 M LLnV, PX-478 in absence or presence of cycloheximide",promoted a shift towards highly ubiquitinated species of HIF-1α
same,Total cell protein ubiquitination,[3]; HT-29 total cell extracts,without affecting
same,HIF-1 transactivation (HRE luciferase),"[4]; MCF-7 and HT-29 cells, 16 hours",significantly decreased
same,HIF-1 transactivation (HRE luciferase),"[4]; RCC4 and RCC4/VHL cells, p=<0.01",significantly inhibited
same,HIF-1α protein,[5]; HCT116+/+ (wild type p53) and HCT116−/− (p53 deleted) cells,decreased HIF-1α protein in both cell lines
same,HIF-1α proline hydroxylation relative to total HIF-1α levels,"[5]; HT-29 cells, hydroxy-Pro564 antibody",did not increase
same,IC50,"[5]; read-out: IC50 for decrease of HIF-α levels, RCC4/VHL cells, hypoxic conditions",13.5 µM
same,IC50,"[5]; read-out: IC50 for decrease of HIF-α levels, RCC4 cells (lacking pVHL), hypoxic conditions",6.9 µM
same,IC50,"[5]; read-out: IC50 for decrease of HIF-α levels, RCC4 cells, normoxic conditions",5.1 µM
same,IC50,"[5]; read-out: IC50 for inhibition of hypoxia-induced increase in HIF-1α protein, HT-29 colon cancer cells, hypoxia 1% oxygen, 16 hours, mean±S.E., n=3",17.4 µM
same,IC50,"[5]; read-out: IC50 for inhibition of hypoxia-induced increase in HIF-1α protein, MCF-7 breast cancer cells, hypoxia 1% oxygen, 16 hours, mean±S.E., n=3",4 µM
same,IC50,"[5]; read-out: IC50 for inhibition of hypoxia-induced increase in HIF-1α protein, PC-3 human prostate cancer cells, hypoxia 1% oxygen, 16 hours, mean±S.E., n=3",3.9 µM
same,Growth delay of HT-29 xenografts,[6],significant growth delay
same,Rate of HIF-1α breakdown,[7],increased the rate of HIF-1α breakdown
same,"Changes in AKT, Raf-1, Src-1, histone H1, cyclin B1 or mutant p53 in tumor",[8],No changes
same,Cellular localization of HIF-1α (immunofluorescence),"[9]; hypoxia 16 hours, 25M PX-478",does not affect the cellular localization of HIF-1α
same,HIF-1α levels in nuclear and cytoplasmic fractions,"[9]; hypoxic conditions, 16 hour",decreased HIF-1α levels in both subcellular fractions
same,Killing of hypoxic cells in a reducing environment,[10],preferentially kill hypoxic cells
same,HIF-1α protein levels in tumor,[11],decrease
same,HIF-1α ubiquitination in tumor,[11],increase
same,Change in HIF-1β protein,[12],no change
same,Change in HIF-1α mRNA,[13],no change

# Like-named read-outs stand apart in the source and are kept apart here.
